{"source": "PubChem BioAssay AID1671194", "about": "(National Center for Advancing Translational Sciences (NCATS), 2021)", "note": "Several values for one entry are separate records, joined by “and”; a condition that tells them apart may be missing. Equal entries are not always repeated. This is a selection; strong and weak results do not stand in their true shares. Results filed as inconclusive are left out. Activity calls are given as the source filed them. Calls follow the shape of the dose curve; as a rule, active = well fitted inhibition curve with a large enough effect; inconclusive = small, poorly fitted or top-dose-only effect; inactive = no such curve, though single readings can be large or run the other way."}
{"experiment": "Primary qHTS assay for inhibitors of alpha-synuclein gene (SNCA) expression; also: nearly all actives have a fitted effect of over 45% in size", "conditions": "HEK-293 SNCA-luciferase knock-in, luminescence, 24 h; at 57.2 µM (top of the series) unless noted", "from_the_text": "Assay Submitter (PI): Daniel R. Scoles Ph.D.\nDepartment of Neurology, University of Utah, Salt Lake City, Utah\nAccumulation of alpha-synuclein is a main underlying pathological feature of Parkinson's disease (PD) and alpha-synucleinopathies, for which lowering expression of the alpha-synuclein gene (SNCA) is a potential therapeutic avenue. Using a cell-based luciferase reporter of SNCA expression we performed a quantitative high throughput screen (qHTS) of 155,885 compounds in dose response. The screening assay was generated using genome editing to insert the luciferase gene downstream and in frame of the SNCA gene in HEK-293 cells (1). A viability counterscreen using GF-AFC was used to eliminate cytotoxic and false positive compounds. After in silico analysis (clustering, removal of frequent hitter nuisance chemotypes), inhibitor compounds from the primary screen were selected for follow up and re-tested at 11-doses in the SNCA-luc cells (luciferase and GF-AFC confirmation), and in CMV-luc expressing cell line to flag general transcriptional repressors.\nDescribed herein are the results of the primary screen for SNCA inhibitors; decrease in luciferase signal (inhibition of the SNCA gene expression) is the desired output for this assay.\n1. Dansithong, W., Paul, S., Scoles, D. R., Pulst, S. M., and Huynh, D. P. (2015) Generation of SNCA Cell Models Using Zinc Finger Nuclease (ZFN) Technology for Efficient High-Throughput Drug Screening. PLoS ONE 10, e0136930.\nSEQUENCE No. (e.g., 1, 2, 3, etc.); […] (e.g., Cells, Incubation, Reagent, etc.); VALUE; DESCRIPTION\n1; Cells; 4 uL; Dispense 1500 HEK-293-SNCA-luc cells/well into Greiner 1536-well white / solid bottom tissue culture treated plate. The plate was covered with metal lids with gas-exchange holes.\n2; Incubate; 24 hours; Incubate at 37C, 5% CO2, 95% RH.\n3; Compounds; 23 nL; Compounds and controls were transferred via a Kalypsys Pin Tool (Wako USA) equipped with a 1536-slotted pin array. The plate was covered with metal lids with gas-exchange holes.\n4; Incubate; 24 hours; Incubate at 37C, 5% CO2, 95% RH.\n5; Dispense; 1 uL; Dispense Gly-Phe-7-amino-4-trifluoromethylcoumarin (GF-AFC, prepared at 125 uM in PBS) was added. The plate was covered with metal lids with gas-exchange holes.\n6; Incubate; 30 min; Incubate at 37C, 5% CO2.\n7; Detector; Fluorescence; Measure fluorescence with ViewLux microplate reader (PerkinElmer) equipped with 405/10 excitation and 540/25 emission filters.\n8; Dispense; 3 uL; Dispense ONE-Glo ([…]) lucifase detection reagent was added to each well. Plates were covered with metal lids with gas-exchange holes.\n9; Incubate; 15 min; Incubate at room temperature.\n10; Detector; Luminescence; Measure luminescence with ViewLux microplate reader (PerkinElmer) equipped with clear filters.\nNOTES (numbers refer to sequence above)\n1; HEK-293-SNCA-luc were cultured and suspended in phenol-red free DMEM (4.5 g/L glucose, 25 mM HEPES, cat #21063 (Thermo)).\n3; Compounds were added to the assay plate in an 11-point intra plate dose response, 1:3 titration in DMSO with a final concentration range of […]. Vehicle-only plates, with DMSO being pin-transferred to every well, were inserted at the beginning of screening runs to confirm expected assay performance. Activity was normalized to wells containing medium only (-100% activity, full inhibition) and SNCA-luc cells treated with DMSO vehicle control (0% activity), contained on the same plate as test samples.\n10; Signals were analyzed, and dose-response curves were fit using the Hill equation. Compounds in curve classes -1.1, -1.2, -2.1, -2.2 in the SNCA-luc assay were considered active. Compounds were eliminated from further consideration if also active (curve class -1.1, -1.2, -1.3, -1.4, -2.1, -2.2, -2.3, -2.4) in the GF-AFC cytotoxicity assay."}
{"compound": "CN(C(=O)Cc1ccc(Cl)c(Cl)c1)[C@H]1CCCC[C@@H]1N1CCCC1", "activity change, negative = inhibition": "inactive: -0.733% and inactive: 5.11%"}
{"compound": "CCNC(C)Cc1ccc2c(c1)OCO2", "note": "(configuration not stated)", "activity change, negative = inhibition": "inactive: -18.5%"}
{"compound": "CN(C(=O)Cc1ccccc1)[C@H]1CC[C@@]2(CCCO2)C[C@@H]1N1CCCC1", "activity change, negative = inhibition": "inactive: -30.2% [at 25.6 µM]"}
{"compound": "Cc1cc([N+](=O)[O-])cc([N+](=O)[O-])c1O", "activity change, negative = inhibition": "inactive: -22.2%"}
{"compound": "CNCc1cc2ccccc2o1", "activity change, negative = inhibition": "inactive: 8.56% [at 87.6 µM]"}
{"compound": "CCn1c(=O)n([C@@H]2CCN(CC3CCCCCCC3)C[C@@H]2CO)c2ccccc21", "activity change, negative = inhibition": "inactive: -12.2%"}
{"compound": "NC(=O)Nc1ccc([As](=O)(O)O)cc1", "activity change, negative = inhibition": "inactive: -4.77% [at 25.6 µM]"}
{"compound": "CN(C(=O)Cc1ccc(Cl)c(Cl)c1)[C@H]1CC[C@@]2(CCCO2)C[C@@H]1N1CCCC1", "activity change, negative = inhibition": "inactive: 17.8% [at 25.6 µM]"}
{"compound": "CN(C(=O)Cc1ccccc1)[C@@H]1CC[C@]2(CCCO2)C[C@H]1N1CCCC1", "activity change, negative = inhibition": "inactive: -4%"}
{"compound": "CN(C(=O)Cc1ccc(Cl)c(Cl)c1)[C@@H]1CC[C@]2(CCCO2)C[C@H]1N1CCCC1", "activity change, negative = inhibition": "inactive: -2.04%"}
{"compound": "CN(CCCl)Cc1cc(Cl)c(NC2=NCCN2)c(Cl)c1", "activity change, negative = inhibition": "inactive: 5.93%"}
{"compound": "CNCc1cccc(C)n1", "activity change, negative = inhibition": "inactive: 15.1% [at 87.6 µM]"}
